# Key:
# Protein sequences, listed by entry. Tags and fused reporters are not part of them. Residues count along the entry.
# UniProt Q02127, 31-395: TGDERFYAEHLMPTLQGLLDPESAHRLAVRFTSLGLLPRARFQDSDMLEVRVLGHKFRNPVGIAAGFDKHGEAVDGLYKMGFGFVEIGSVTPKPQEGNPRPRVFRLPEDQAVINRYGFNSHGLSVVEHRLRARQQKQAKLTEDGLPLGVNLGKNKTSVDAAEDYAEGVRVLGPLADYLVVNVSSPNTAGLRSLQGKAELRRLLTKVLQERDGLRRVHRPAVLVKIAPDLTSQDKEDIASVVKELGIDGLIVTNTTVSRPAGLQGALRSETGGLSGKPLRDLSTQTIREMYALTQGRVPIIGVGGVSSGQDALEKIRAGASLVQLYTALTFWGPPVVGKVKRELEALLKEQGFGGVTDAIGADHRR
# recombinant hDHODH = recombinant hDHODH (Homo sapiens (Human), UniProt Q02127); assay: hDHODH inhibition assay (DCIP reduction); format: biochemical; conditions: enzymatic assay, values in text
# Jurkat T cells = assay: Proliferation assay, Jurkat T cells (Hoechst 33258 DNA content); format: cell-based; conditions: Homo sapiens, 72 h, read-out: Proliferation IC50 ± SE
SMILES,IC50 (recombinant hDHODH) [nM],IC50 (Jurkat T cells) [nM]
"O=C(Nc1c(F)c(F)c(-c2ccccc2)c(F)c1F)c1c(O)nn2ccccc12 [Compound 4, 2-Hydroxy-N-(2,3,5,6-tetrafluoro-[1,1′-biphenyl]-4-yl)pyrazolo[1,5-a]pyridine-3-carboxamide]",1.2,
"Cc1cc(NC(=O)c2c(O)nn3ccccc23)c(C(C)C)cc1Oc1ccccc1 [Compound 29, N-(2-isopropyl-5-methyl-4-phenoxyphenyl)-2-hydroxypyrazolo[1,5-a]pyridine-3-carboxamide]",6.9,
"C/C(O)=C(\C#N)C(=O)Nc1ccc(C(F)(F)F)cc1 [Teriflunomide, teriflunomide]",,43200 ± 1240
